Test [1] deals with T1, MART1 peptide on HLA-A*02:01 (human).
T1 peptide: AAGIGILTV
Briefly: IL-2 ELISPOT; Jurkat76/CD8αβ transfectants; T2 cells pulsed with graded concentrations of MART1 27-35 peptide; full-length, on cells.

For test [2], the target named is T1, MART1 peptide on HLA-A*02:01. Briefly: IL-2 ELISPOT; Jurkat76 transfectants without CD8; T2 cells pulsed with graded concentrations of MART1 27-35 peptide; full-length, on cells.
Test [3] has the same target. Kind of test: cytokine release.
Test [4] has the same target. Kind of test: IL-2 ELISPOT; Jurkat 76/CD8αβ transfectants; T2 cells pulsed with graded concentrations of MART1 27-35 peptide; full-length, on cells.
Test [5] shares this target. Kind of test: IL-2 ELISPOT; Jurkat 76 transfectants without CD8; T2 cells pulsed with graded concentrations of MART1 27-35 peptide; full-length, on cells.

B1: Clone 1086 (SIG35α with clone 1086 TCRβ) (TCR)
Valpha: QKEVEQNSGPLSVPEGAIASLNCTYSDRGSQSFFWYRQYSGKSPELIMFIYSNGDKEDGRFTAQLNKASQYVSLLIRDSQPSDSATYLCAVSIGFGNVLHCGSGTQVIVLP
beta TRBV27 TRBJ1-2 CDR3: CASSLHGPGGYTF
B1: the EC50 of peptide in test [1] is 630 nM; in test [2], 2400 nM.

B2: Clone 7Q (SIG35α with clone 7Q TCRβ) (TCR, V domains shown)
Valpha: QKEVEQNSGPLSVPEGAIASLNCTYSDRGSQSFFWYRQYSGKSPELIMFIYSNGDKEDGRFTAQLNKASQYVSLLIRDSQPSDSATYLCAVSIGFGNVLHCGSGTQVIVLP
Vbeta: EAQVTQNPRYLITVTGKKLTVTCSQNMNHEYMSWYRQDPGLGLRQIYYSMNVEVTDKGDVPEGYKVSRKEKRNFPLILESPSPNQTSLYFCASSPYMMNTEAFFGQGTRLTVV
Take B2: the binding result in test [3] is reported as “recognises”.

B3: Clone 11C (SIG35α with clone 11C TCRβ) (TCR)
Valpha: QKEVEQNSGPLSVPEGAIASLNCTYSDRGSQSFFWYRQYSGKSPELIMFIYSNGDKEDGRFTAQLNKASQYVSLLIRDSQPSDSATYLCAVSIGFGNVLHCGSGTQVIVLP
beta TRBV2 TRBJ1-2 CDR3: CASDEGFGYTF
For the molecule B3, the EC50 of peptide in test [4] came to 292 µg/mL; in test [5], 2460 µg/mL.

B4: Clone 7E (SIG35α with clone 7E TCRβ) (TCR)
Valpha: QKEVEQNSGPLSVPEGAIASLNCTYSDRGSQSFFWYRQYSGKSPELIMFIYSNGDKEDGRFTAQLNKASQYVSLLIRDSQPSDSATYLCAVSIGFGNVLHCGSGTQVIVLP
beta TRBV27 TRBJ1-3 CDR3: CASSRDFGNTIYF
Take B4: in test [5], the EC50 of peptide is 102 µg/mL.

B5: Clone 794 (SIG35α with clone 794 TCRβ) (TCR, V domains shown)
Valpha: QKEVEQNSGPLSVPEGAIASLNCTYSDRGSQSFFWYRQYSGKSPELIMFIYSNGDKEDGRFTAQLNKASQYVSLLIRDSQPSDSATYLCAVSIGFGNVLHCGSGTQVIVLP
Vbeta: EAQVTQNPRYLITVTGKKLTVTCSQNMNHEYMSWYRQDPGLGLRQIYYSMNVEVTDKGDVPEGYKVSRKEKRNFPLILESPSPNQTSLYFCASSLLGDYGYTFGSGTRLTVV
For the molecule B5, the binding result in test [3] is “recognises”.

B6: Clone 9J (SIG35α with clone 9J TCRβ) (TCR)
Valpha: QKEVEQNSGPLSVPEGAIASLNCTYSDRGSQSFFWYRQYSGKSPELIMFIYSNGDKEDGRFTAQLNKASQYVSLLIRDSQPSDSATYLCAVSIGFGNVLHCGSGTQVIVLP
beta TRBV5-1 TRBJ1-2 CDR3: CASSWTGDGYTF
B6: the binding result in test [3] is listed as “recognises”.

B7: Clone 8H (SIG35α with clone 8H TCRβ) (TCR)
Valpha: QKEVEQNSGPLSVPEGAIASLNCTYSDRGSQSFFWYRQYSGKSPELIMFIYSNGDKEDGRFTAQLNKASQYVSLLIRDSQPSDSATYLCAVSIGFGNVLHCGSGTQVIVLP
beta TRBV27 TRBJ2-7 CDR3: CASSPLGAMEQYF
For the molecule B7, in test [3], the binding result is recorded as “recognises”.

B8: Clone 6X (SIG35α with clone 6X TCRβ) (TCR)
Valpha: QKEVEQNSGPLSVPEGAIASLNCTYSDRGSQSFFWYRQYSGKSPELIMFIYSNGDKEDGRFTAQLNKASQYVSLLIRDSQPSDSATYLCAVSIGFGNVLHCGSGTQVIVLP
beta TRBV2 TRBJ2-3 CDR3: CATGVTDTQYF
Regarding B8, the values for the EC50 of peptide in test [4] and in test [5] were 83 µg/mL and 150 µg/mL, respectively.

B9: Clone 9I (SIG35α with clone 9I TCRβ) (TCR)
Valpha: QKEVEQNSGPLSVPEGAIASLNCTYSDRGSQSFFWYRQYSGKSPELIMFIYSNGDKEDGRFTAQLNKASQYVSLLIRDSQPSDSATYLCAVSIGFGNVLHCGSGTQVIVLP
beta TRBV5-1 TRBJ1-1 CDR3: CASSLAMGATEAFF
B9: the EC50 of peptide in test [4] stood at 97 µg/mL; in test [5], 140 µg/mL.

B10: Clone 6B (SIG35α with clone 6B TCRβ) (TCR)
Valpha: QKEVEQNSGPLSVPEGAIASLNCTYSDRGSQSFFWYRQYSGKSPELIMFIYSNGDKEDGRFTAQLNKASQYVSLLIRDSQPSDSATYLCAVSIGFGNVLHCGSGTQVIVLP
beta TRBV2 TRBJ2-1 CDR3: CASSEVAWQFF
Turning to B10, the values for the EC50 of peptide in test [4] and in test [5] were 120 µg/mL and 600 µg/mL, respectively.

B11: Clone 523 (SIG35α with clone 523 TCRβ) (TCR)
Valpha: QKEVEQNSGPLSVPEGAIASLNCTYSDRGSQSFFWYRQYSGKSPELIMFIYSNGDKEDGRFTAQLNKASQYVSLLIRDSQPSDSATYLCAVSIGFGNVLHCGSGTQVIVLP
beta TRBV27 TRBJ2-7 CDR3: CASGSYEQYF
In turn, B11 yielded an EC50 of peptide in test [1] of 2700 nM.

B12: Clone 788 (SIG35α with clone 788 TCRβ) (TCR)
Valpha: QKEVEQNSGPLSVPEGAIASLNCTYSDRGSQSFFWYRQYSGKSPELIMFIYSNGDKEDGRFTAQLNKASQYVSLLIRDSQPSDSATYLCAVSIGFGNVLHCGSGTQVIVLP
beta TRBV27 TRBJ2-7 CDR3: CASGPSYEQYF
As to B12, the EC50 of peptide in test [1] was determined as 570 nM; in test [2], 2900 nM.

B13: Clone 830 (SIG35α with clone 830 TCRβ) (TCR, V domains shown)
Valpha: QKEVEQNSGPLSVPEGAIASLNCTYSDRGSQSFFWYRQYSGKSPELIMFIYSNGDKEDGRFTAQLNKASQYVSLLIRDSQPSDSATYLCAVSIGFGNVLHCGSGTQVIVLP
Vbeta: EAQVTQNPRYLITVTGKKLTVTCSQNMNHEYMSWYRQDPGLGLRQIYYSMNVEVTDKGDVPEGYKVSRKEKRNFPLILESPSPNQTSLYFCASSLGGAYEQYFGPGTRLTVT
As to B13, the binding result in test [3] is “recognises”.

B14: Clone 413 (SIG35α with clone 413 TCRβ) (TCR)
Valpha: QKEVEQNSGPLSVPEGAIASLNCTYSDRGSQSFFWYRQYSGKSPELIMFIYSNGDKEDGRFTAQLNKASQYVSLLIRDSQPSDSATYLCAVSIGFGNVLHCGSGTQVIVLP
beta TRBV27 TRBJ1-4 CDR3: CASSVFGGDMGEKLFF
In the case of B14, in test [1], the EC50 of peptide is 10000 nM.

(Values after patent US20160340403A1 (published 2016).)
